The values that follow come from US20060293223A1 (Eli Lilly and Company Patent Division, priority 2003, published 2006).

By UniProt entry, the sequences of proteins in these tests, tags left out. Where a name states a change or a piece, a line headed by the entry shows the natural chain unless it says otherwise.
UniProt P41968: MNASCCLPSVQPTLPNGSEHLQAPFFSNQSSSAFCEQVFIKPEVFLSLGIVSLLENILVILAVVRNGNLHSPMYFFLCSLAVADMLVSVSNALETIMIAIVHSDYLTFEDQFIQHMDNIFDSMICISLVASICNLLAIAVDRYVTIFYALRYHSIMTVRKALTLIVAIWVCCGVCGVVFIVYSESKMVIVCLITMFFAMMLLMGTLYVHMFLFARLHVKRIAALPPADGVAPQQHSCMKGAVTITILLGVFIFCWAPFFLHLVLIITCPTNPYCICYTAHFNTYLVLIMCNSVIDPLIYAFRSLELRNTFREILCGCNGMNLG
UniProt P32245, whole entry: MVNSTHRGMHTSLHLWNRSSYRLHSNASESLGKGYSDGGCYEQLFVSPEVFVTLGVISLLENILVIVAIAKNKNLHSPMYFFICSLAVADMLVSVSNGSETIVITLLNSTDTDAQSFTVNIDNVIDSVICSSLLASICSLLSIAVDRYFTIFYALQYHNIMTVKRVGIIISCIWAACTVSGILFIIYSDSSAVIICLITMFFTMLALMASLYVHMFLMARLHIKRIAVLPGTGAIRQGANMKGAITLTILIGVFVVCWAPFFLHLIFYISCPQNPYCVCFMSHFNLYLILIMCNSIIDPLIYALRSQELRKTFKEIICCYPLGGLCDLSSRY

In one assay the target is human MC3R (Homo sapiens, UniProt P41968). The experiment in a line: Melanocortin receptor whole cell cAMP accumulation assay, MC3 (Table 2, MC3 Potency, printed as Ki). It is filed as cell-based. (In general: Changes in cAMP serve as a functional read-out for many G protein-coupled receptors.)
The test system of the next assay is MC1/MC4. The following applies: ratio MC1/MC4.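 Note: ratio of EC50 values obtained at MC1 versus MC4 receptors, with MC1 potency measured by luciferase reporter activity in stably transfected cells expressing human MC1.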
The target in a further assay is human MC4R (Homo sapiens, UniProt P32245). The experiment in a line: cell-based.

`N=C(N)NCCC[C@@H]1NC(=O)[C@@H](Cc2ccccc2)NC(=O)[C@H](Cc2c[nH]cn2)NC(=O)[C@@H](NC(=O)[C@@H](N)CCCNC(=N)N)CCSSCC[C@@H](C(N)=O)NC(=O)[C@H](Cc2c[nH]c3ccccc23)NC1=O` [Compound 194, Arg-cyclo[hCys-His-D-Phe-Arg-Trp-hCys]-NH2]: at human MC3R, the affinity corresponds to a Ki of 41.9 nM. Still for that read-out and setting: the value for `N=C(N)NCCC[C@@H]1NC(=O)[C@@H](Cc2ccccc2)NC(=O)[C@H](Cc2c[nH]cn2)NC(=O)[C@H](CCC(=O)O)NC(=O)[C@@H](N)CSSC[C@@H](C(N)=O)NC(=O)[C@H](Cc2c[nH]c3ccccc23)NC1=O` [Compound 29, cyclo[Cys-Glu-His-D-Phe-Arg-Trp-Cys]-NH2] was not below 500 nM. With “Ac-Arg-cyclo[hCys-His-D-Phe-Arg-Trp-hCys]-NH2 [Compound 195]”, the MC1/MC4 selectivity in the assay on MC1/MC4 is listed as 32.56. Regarding “Ac-Tyr-Arg-cyclo[Cys-His-His-D-Phe-Arg-Trp-Cys]-NH2 [Compound 13]”, the MC1/MC4 selectivity in the assay with MC1/MC4 was 10.65.

Turning to `N=C(N)NCCC[C@@H]1NC(=O)[C@@H](Cc2ccccc2)NC(=O)[C@H](Cc2c[nH]cn2)NC(=O)[C@@H](N)CCSSC[C@@H](C(N)=O)NC(=O)[C@H](Cc2c[nH]c3ccccc23)NC1=O` [Compound 132, cyclo[hCys-His-D-Phe-Arg-Trp-Cys]-NH2], on human MC4R, the Ki (as a rule, the dissociation constant of the complex between target and ligand, obtained from inhibition or displacement) turned out to be 0.34 nM. Compound `N=C(N)NCCC[C@@H]1NC(=O)[C@@H](Cc2ccc(F)cc2)NC(=O)[C@H](Cc2c[nH]cn2)NC(=O)[C@@H](N)CSSCC[C@@H](C(N)=O)NC(=O)[C@H](Cc2c[nH]c3ccccc23)NC1=O` [Compound 181, cyclo[Cys-His-(4-F-D-Phe)-Arg-Trp-hCys]-NH2] returned a Ki on human MC3R not below 500 nM.

Take “Ac-cyclo[Cys-His-(4-F-D-Phe)-Arg-Trp-hCys]-NH2 [Compound 184]”: the MC1/MC4 selectivity with MC1/MC4 is listed as 97.44. As for “Ac-cyclo[hCys-His-Phe-Arg-Trp-Cys]-NH2 [Compound 136]”, in the assay with MC1/MC4, the MC1/MC4 selectivity was determined as 7.01.
